# Experimental data: paper PMC12005989, “Purification, identification, and in silico screening of a multifunctional octapeptide from semen armeniacae glutelin-2 hydrolysates: restraining mechanisms to Keap1 and ACE, stability, and ferrous-transport efficiency” (Frontiers in Nutrition, 2025)
# Experiment: Ferrous solubility of ferrous chelate during simulated gastrointestinal digestion
# Format: in vitro ADME
# Experimental: Next, the intestinal digestive fluid was added, and the digestion was continued at pH 6.8 for 2 h in the EDZF-C002 thermostatic vibrator ([…], 175 rpm).
substance,measurement,setting,value
PVDFAGFY-ferrous chelate: ferrous chelate of PVDFAGFY prepared with ferrous chloride (ferrous chelate),Ferrous solubility during gastric digestion (0–90 min),"simulated gastric fluid with pepsin, pH 1.9, 37°C, 175 rpm, soluble ferrous by o-phenanthroline every 30 min",relatively stable
same,"Ferrous solubility compared with ferrous lactate and ferrous chloride, 91 to 180 min","simulated intestinal digestion, pH 6.8, comparators 0.1 mg/mL, p < 0.05",much higher than those of ferrous lactate and ferrous chloride
same,Ferrous solubility during intestinal digestion (91–180 min),"simulated intestinal fluid, pH 6.8, 37°C, soluble ferrous by o-phenanthroline every 30 min",apparently decreased
